Measured values as given in PubChem BioAssay AID1259400 (National Center for Advancing Translational Sciences (NCATS), 2018).
The entries are a selection whose mix differs from that of the whole data set. Active and inactive are the calls of the source.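 How the source made its calls: active means activity change of -60% or lower, but not beyond a set lower limit; inconclusive means change between -60% and -40%, or beyond the set limit; inactive means change above -40%.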

Amino acid sequences for entries named in this document (tags omitted).
UniProt Q9HBX9, whole entry: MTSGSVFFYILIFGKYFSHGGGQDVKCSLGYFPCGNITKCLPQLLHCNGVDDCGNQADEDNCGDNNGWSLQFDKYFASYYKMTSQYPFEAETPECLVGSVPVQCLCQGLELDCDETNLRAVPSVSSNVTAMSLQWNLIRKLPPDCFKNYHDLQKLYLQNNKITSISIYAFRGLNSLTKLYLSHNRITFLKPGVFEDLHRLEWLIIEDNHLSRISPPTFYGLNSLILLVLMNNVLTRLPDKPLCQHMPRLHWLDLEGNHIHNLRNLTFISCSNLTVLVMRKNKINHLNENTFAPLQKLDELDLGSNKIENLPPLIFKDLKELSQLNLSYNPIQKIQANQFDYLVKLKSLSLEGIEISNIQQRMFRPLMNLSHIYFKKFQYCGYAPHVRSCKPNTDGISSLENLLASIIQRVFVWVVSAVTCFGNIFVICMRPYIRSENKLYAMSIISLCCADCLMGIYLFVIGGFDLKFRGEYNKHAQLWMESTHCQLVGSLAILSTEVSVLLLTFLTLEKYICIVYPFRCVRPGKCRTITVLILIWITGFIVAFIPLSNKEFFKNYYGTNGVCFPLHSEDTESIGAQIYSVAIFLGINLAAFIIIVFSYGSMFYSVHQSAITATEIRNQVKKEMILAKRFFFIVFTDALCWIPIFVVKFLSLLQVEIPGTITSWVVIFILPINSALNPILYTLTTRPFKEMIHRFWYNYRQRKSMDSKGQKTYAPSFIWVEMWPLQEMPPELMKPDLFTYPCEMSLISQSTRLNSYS

Each molecule was assayed against Relaxin receptor 1 (Homo sapiens) (UniProt Q9HBX9) (assay: qHTS Assay for Antagonists of the Relaxin Receptor RXFP1). Conditions: HEK293-RXFP1, relaxin-stimulated cAMP HTRF, 30 min; at 57.5 µM; stronger effect = lower value.
On the % scale 0 is the no-effect control and ±100 the full control effect.

Compound | activity change, negative = inhibition
CP(=O)(Nc1ccccc1Br)Oc1ccccc1 (stereo not drawn) | inactive: 2.25%
COc1ccccc1OP(C)(=O)Nc1ccccc1 (stereo not drawn) | inactive: -5.57%
CP(=S)(Nn1cnnc1)Oc1ccccc1 (stereo not drawn) | inactive: -9.88%
O=[N+]([O-])c1ccc2c(c1)C=Nc1ccccc1O2 | inactive: -1.52%
Cc1cccc(C)c1OP(C)(N)=O (stereo not drawn) | inactive: -6.8%
Cc1cc(C)cc(OP(C)(N)=O)c1 (stereo not drawn) | inactive: -6.56%
COc1ccccc1OP(C)(=O)Nc1cc(Cl)ccc1C (stereo not drawn) | inactive: -12.8%
COc1ccc(OP(C)(=O)Nc2cccc(F)c2)cc1 (stereo not drawn) | inactive: -10.7%
COc1ccccc1OP(C)(=O)Nc1ccc(C)cc1 (stereo not drawn) | inactive: 0.662%
Cc1ccc(NP(C)(=O)Oc2ccccc2)c(C)c1 (stereo not drawn) | inactive: 8.52%
CCOC(=O)c1ccc(NP(C)(=O)Oc2ccccc2)cc1 (stereo not drawn) | inactive: -1.43%
CCN(CC)CCCOC(=O)C(O)(c1ccccc1)c1ccccc1 | inactive: -4.43%
CCOC(=O)c1ccc(NP(C)(=O)Oc2cc(C)cc(C)c2)cc1 (stereo not drawn) | inactive: 2.93%
Cc1cc(C)cc(OP(C)(=O)Nc2ccc(C)cc2C)c1 (stereo not drawn) | inactive: -14.1%
COc1ccccc1OP(C)(=O)Nc1cccc(Br)c1 (stereo not drawn) | inactive: 4.26%
Cc1ccc(C)c(NP(C)(=O)Oc2ccccc2)c1 (stereo not drawn) | inactive: 4.69%
Cc1cc(C)cc(OP(C)(=O)Nc2ccccn2)c1 (stereo not drawn) | inactive: -2.94%
CP(=O)(Nc1cccc(Br)c1)Oc1ccccc1 (stereo not drawn) | inactive: -2.77%
O=[N+]([O-])c1cccc([N+](=O)[O-])c1 | inactive: 32.2%
CC1=NCCc2c1[nH]c1ccccc21.O=[N+]([O-])c1cc([N+](=O)[O-])c(O)c([N+](=O)[O-])c1 | inactive: -11.9%
O=[N+]([O-])c1cc([N+](=O)[O-])c(Nc2nnnn2CCO)c([N+](=O)[O-])c1 | inactive: 7.3%
CCCOc1ccc(NP(C)(=O)Oc2ccc(Cl)cc2)cc1 (stereo not drawn) | inactive: -21.4%
CP(=O)(Nc1ccc(SC(F)(F)F)cc1)Oc1ccccc1 (stereo not drawn) | inactive: -25.4%
CN1CCCCC1COC(=O)C1(O)c2ccccc2CCc2ccccc21 (stereo not drawn) | inactive: -24.3%
COc1ccccc1OP(C)(=O)Nc1c(C)cccc1C (stereo not drawn) | inactive: 3.61%
O=[N+]([O-])c1cc([N+](=O)[O-])c(-n2nnc3ccccc32)c([N+](=O)[O-])c1 | inactive: 16.6%
Cc1nc2ccc3ccccc3c2s1.O=[N+]([O-])c1cc([N+](=O)[O-])c(O)c([N+](=O)[O-])c1 | inactive: 1.44%
O=[N+]([O-])c1cc([N+](=O)[O-])c(-c2cnn(-c3ccccc3)c2)c([N+](=O)[O-])c1 | inactive: 9.55%
